Drawing on US20150246938A1, “NOVEL OLEFIN DERIVATIVE” (SHIONOGI & CO., LTD., priority 2011, published 2015), this text covers IC50 for one molecule.

Protein sequences, listed by entry. Tags and fused reporters are not part of them. Residues count along the entry.
UniProt O00763, 27-2458 limits assumed: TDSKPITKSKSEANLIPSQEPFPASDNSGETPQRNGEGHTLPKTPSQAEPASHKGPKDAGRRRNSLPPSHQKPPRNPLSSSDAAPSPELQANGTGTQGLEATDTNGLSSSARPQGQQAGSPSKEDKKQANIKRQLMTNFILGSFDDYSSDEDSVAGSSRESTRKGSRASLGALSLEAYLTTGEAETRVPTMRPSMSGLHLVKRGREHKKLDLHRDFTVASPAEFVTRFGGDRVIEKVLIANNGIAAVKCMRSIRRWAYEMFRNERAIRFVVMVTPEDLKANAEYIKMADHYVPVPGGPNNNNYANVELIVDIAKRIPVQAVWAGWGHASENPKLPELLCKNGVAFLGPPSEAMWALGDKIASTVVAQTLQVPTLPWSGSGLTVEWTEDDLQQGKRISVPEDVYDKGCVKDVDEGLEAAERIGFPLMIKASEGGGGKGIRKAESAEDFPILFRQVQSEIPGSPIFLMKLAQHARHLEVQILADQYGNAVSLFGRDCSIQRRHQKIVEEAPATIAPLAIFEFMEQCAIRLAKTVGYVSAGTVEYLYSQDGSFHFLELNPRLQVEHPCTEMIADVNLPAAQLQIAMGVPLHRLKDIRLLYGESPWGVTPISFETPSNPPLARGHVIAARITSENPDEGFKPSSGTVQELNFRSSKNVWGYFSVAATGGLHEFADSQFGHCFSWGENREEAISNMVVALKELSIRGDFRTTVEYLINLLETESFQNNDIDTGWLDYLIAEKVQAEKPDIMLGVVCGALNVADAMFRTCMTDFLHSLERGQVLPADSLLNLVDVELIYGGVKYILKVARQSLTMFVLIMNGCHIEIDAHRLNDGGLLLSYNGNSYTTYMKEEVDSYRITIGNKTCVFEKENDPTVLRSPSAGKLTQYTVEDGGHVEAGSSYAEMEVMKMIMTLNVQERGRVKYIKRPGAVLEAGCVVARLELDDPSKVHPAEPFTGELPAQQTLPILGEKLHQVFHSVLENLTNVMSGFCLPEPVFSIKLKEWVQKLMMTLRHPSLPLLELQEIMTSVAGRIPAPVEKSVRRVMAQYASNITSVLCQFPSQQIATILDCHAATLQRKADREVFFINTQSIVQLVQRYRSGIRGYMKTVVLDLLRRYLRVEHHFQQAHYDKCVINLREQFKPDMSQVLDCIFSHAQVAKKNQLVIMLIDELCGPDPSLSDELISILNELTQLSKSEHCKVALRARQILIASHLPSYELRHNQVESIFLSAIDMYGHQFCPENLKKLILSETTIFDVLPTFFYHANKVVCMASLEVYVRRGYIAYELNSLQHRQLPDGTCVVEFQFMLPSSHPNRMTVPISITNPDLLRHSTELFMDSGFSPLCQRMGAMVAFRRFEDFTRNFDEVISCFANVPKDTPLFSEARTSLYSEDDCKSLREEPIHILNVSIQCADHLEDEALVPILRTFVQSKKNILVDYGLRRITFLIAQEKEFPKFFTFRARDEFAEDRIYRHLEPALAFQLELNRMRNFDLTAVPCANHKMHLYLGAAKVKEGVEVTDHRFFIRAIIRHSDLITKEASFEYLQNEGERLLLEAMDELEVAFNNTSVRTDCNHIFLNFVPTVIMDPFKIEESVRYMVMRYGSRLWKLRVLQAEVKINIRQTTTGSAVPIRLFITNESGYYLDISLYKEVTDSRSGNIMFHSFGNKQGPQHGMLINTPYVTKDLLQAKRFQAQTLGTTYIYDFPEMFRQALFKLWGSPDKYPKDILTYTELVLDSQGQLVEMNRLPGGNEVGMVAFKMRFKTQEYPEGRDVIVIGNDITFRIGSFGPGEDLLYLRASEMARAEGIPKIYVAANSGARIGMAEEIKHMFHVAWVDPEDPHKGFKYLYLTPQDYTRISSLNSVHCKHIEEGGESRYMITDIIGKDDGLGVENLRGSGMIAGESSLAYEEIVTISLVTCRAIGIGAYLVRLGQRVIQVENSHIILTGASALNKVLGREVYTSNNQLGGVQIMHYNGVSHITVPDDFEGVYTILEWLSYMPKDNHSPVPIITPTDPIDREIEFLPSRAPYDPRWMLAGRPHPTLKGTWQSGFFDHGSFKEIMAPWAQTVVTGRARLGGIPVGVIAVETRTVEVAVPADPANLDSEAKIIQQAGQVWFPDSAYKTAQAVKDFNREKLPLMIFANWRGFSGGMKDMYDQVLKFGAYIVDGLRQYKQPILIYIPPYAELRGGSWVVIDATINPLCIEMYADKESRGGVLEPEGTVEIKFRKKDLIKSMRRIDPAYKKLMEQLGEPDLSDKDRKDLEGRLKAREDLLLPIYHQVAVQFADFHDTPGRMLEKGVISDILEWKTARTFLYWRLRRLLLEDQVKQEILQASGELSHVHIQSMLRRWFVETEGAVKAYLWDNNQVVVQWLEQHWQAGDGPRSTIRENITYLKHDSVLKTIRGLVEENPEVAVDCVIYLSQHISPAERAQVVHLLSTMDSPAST

The test has as its target recombinant human ACC2 (Homo sapiens, UniProt O00763). The experiment in a line: Measurement of inhibitory activity on human ACC2 (MALDI-TOF MS, acetyl CoA to malonyl CoA conversion). The format is biochemical. The following applies: inhibition activity on human ACC2, Table 79.

The structures appear in SMILES notation.

Consider `CC(=O)N[C@@H](C)/C=C/c1ccc(Oc2ccc(OCC3CC3)cc2Cl)cc1F`, for which the IC50 (usually the point on the concentration scale where inhibition reaches its midpoint) is 7 nM.
